Measured values: article PMC3593252 (ACS medicinal chemistry letters, 2013)

Tested on: acetylated tubulin, acetylated histone H3, acetylated histone H4 and p21 in MDA-MB-231 cell lines
Experiment: Western blot analysis in MDA-MB-231 cell line
Assay type: cell-based
Conditions: 1 μM, 3 h vs 24 h

In the case of `O=C(CCCCCCC(=O)Nc1ccccc1)NO` [SAHA, vorinostat, reference compound], the “effect on histone H4 acetylation with time” value is reported as “decreased with time”.
